Experimental data as given in patent US9611297B1, “Compositions and methods for the treatment of cast nephropathy and related conditions” (Thrasos Therapeutics Inc., priority 2016, dated 2017).

Assays:
[1] = molecular target: T1, uromodulin binding to light chain ROC (subtype kappa) (Homo sapiens, UniProt P07911); experiment: ELISA: inhibition of biotin-uromodulin binding to plate-coated light chain clone ROC
T1 construct: Uromodulin was precipitated from fresh urine from healthy donors using 0.58M NaCl; from tissue; host or cells: urine of healthy human donors (uromodulin); CHO cells (light chain ROC)
Description: Uromodulin was precipitated from fresh urine from healthy donors using 0.58M NaCl. The precipitate was then washed with 0.58M NaCl and resuspended in water. The uromodulin was dialyzed extensively against water to remove salt and other contaminants (MWCo=50 KD). Samples were then stored at −20° C. without lyophilization. Good overall purity was seen by gel electrophoresis.
(§1) Enzyme-linked immunosorbant assays (ELISA) were performed on the disclosed peptides. Plates were coated with the following light chain clones overnight at 4° C.: 0.05 uM BER (subtype lambda, isolated from SP2/0 cells), 0.2 uM ROC (subtype kappa, isolated from CHO cells), and 0.3 uM BEN (subtype lambda, isolated from CHO cells). The plates were washed and treated with bovine serum albumin (BSA) overnight at 4° C. For peptide plates, 10 nM biotin-uromodulin was mixed with peptide overnight at 4° C.

[2] = molecular target: T2, uromodulin binding to light chain BER (subtype lambda) (Homo sapiens, UniProt P07911); experiment: ELISA: inhibition of biotin-uromodulin binding to plate-coated light chain clone BER
T2 construct: Uromodulin was precipitated from fresh urine from healthy donors using 0.58M NaCl; from tissue; host or cells: urine of healthy human donors (uromodulin); SP2/0 cells (light chain BER)
Description: Uromodulin was precipitated from fresh urine from healthy donors using 0.58M NaCl. The precipitate was then washed with 0.58M NaCl and resuspended in water. […] Samples were then stored at −20° C. without lyophilization.
as §1

[3] = light chain BER 0.05 uM coated, 10 nM biotin-uromodulin, read-out: Binding Inhibition (IC50 uM) BER

Row | IC50 [2, 3] [µM] | Structure (SMILES) | IC50 [1] [µM] | IC50 [2] [µM]
1 | – | NCCCCCC(=O)N[C@@H](CS)C(=O)N[C@@H](CCC(N)=O)C(=O)N[C@@H](CO)C(=O)N[C@@H](Cc1ccc(O)cc1)C(=O)N[C@@H](CC(=O)O)C(=O)N[C@@H](Cc1c[nH]cn1)C(=O)N[C@@H](CC(N)=O)C(=O)N[C@@H](CC(N)=O)C(=O)N[C@@H](CCC(N)=O)C(N)=O [compound 9] | ≥ 500 | ≥ 500
2 | – | CC[C@H](C)[C@@H]1NC(=O)[C@H](CO)NC(=O)[C@H](CCC(=O)O)NC(=O)[C@H](CO)NC(=O)[C@H](CCC(N)=O)NC(=O)[C@H](CCC(N)=O)NC(=O)[C@@H](NC(=O)CCCCCN)CSSC[C@@H](C(=O)N[C@@H](CCCCN)C(=O)N[C@@H](CCCCN)C(N)=O)NC(=O)[C@H]([C@@H](C)O)NC(=O)[C@H](Cc2ccc(O)cc2)NC(=O)[C@@H]2CCCN2C1=O [compound 31] | – | 25.9
3 | – | CC[C@H](C)[C@@H]1NC(=O)[C@H](CO)NC(=O)[C@H](Cc2ccc(O)cc2)NC(=O)[C@H](CO)NC(=O)[C@H](CCC(N)=O)NC(=O)[C@H](CCC(N)=O)NC(=O)[C@@H](NC(=O)CCCCCN)CSSC[C@@H](C(=O)N[C@@H](CCCCN)C(=O)N[C@@H](CCCCN)C(N)=O)NC(=O)[C@H]([C@@H](C)O)NC(=O)[C@H](Cc2ccc(O)cc2)NC(=O)[C@H](CCCNC(=N)N)NC1=O [compound 43] | > 120 | > 500
4 | – | CC(C)C[C@@H]1NC(=O)[C@@H](NC(=O)CCCCCN)CSSC[C@@H](C(=O)N[C@@H](CCCCN)C(=O)N[C@@H](CCCCN)C(N)=O)NC(=O)[C@H](C(C)C)NC(=O)[C@H](Cc2ccc(O)cc2)NC(=O)[C@H](CC(C)C)NC(=O)[C@H](Cc2ccc(O)cc2)NC(=O)[C@H](CO)NC(=O)CNC(=O)[C@H](CO)NC(=O)[C@H](CO)NC(=O)[C@H](CC(=O)O)NC(=O)[C@H](C)NC(=O)[C@H](CO)NC1=O [compound 4] | ≥ 500 | ≥ 500
5 | – | CC[C@H](C)[C@@H]1NC(=O)[C@H](CO)NC(=O)[C@H](Cc2ccc(O)cc2)NC(=O)[C@H](CO)NC(=O)[C@H](CCC(N)=O)NC(=O)[C@H](CCCNC(=N)N)NC(=O)[C@@H](NC(=O)CCCCCN)CSSC[C@@H](C(=O)N[C@@H](CCCCN)C(=O)N[C@@H](CCCCN)C(N)=O)NC(=O)[C@H]([C@@H](C)O)NC(=O)[C@H](Cc2ccc(O)cc2)NC(=O)[C@@H]2CCCN2C1=O [compound 37] | – | 49.8
6 | – | CC(C)C[C@@H]1NC(=O)[C@H](CO)NC(=O)CNC(=O)[C@H](CO)NC(=O)[C@H](CC(C)C)NC(=O)[C@H]([C@@H](C)O)NC(=O)[C@H](CC(N)=O)NC(=O)[C@H](CC(=O)O)NC(=O)[C@H](Cc2ccc(O)cc2)NC(=O)[C@H](CO)NC(=O)[C@H](CCC(N)=O)NC(=O)[C@@H](NC(=O)CCCCCN)CSSC[C@@H](C(=O)N[C@@H](CCCCN)C(=O)N[C@@H](CCCCN)C(N)=O)NC1=O [compound 7] | ≥ 500 | ≥ 500
7 | – | C[C@@H]1NC(=O)[C@H](CO)NC(=O)[C@H](Cc2ccc(O)cc2)NC(=O)[C@H](Cc2ccc(O)cc2)NC(=O)[C@H](CCC(N)=O)NC(=O)[C@H](CCC(N)=O)NC(=O)[C@@H](NC(=O)CCCCCN)CSSC[C@@H](C(=O)N[C@@H](CCCCN)C(=O)N[C@@H](CCCCN)C(N)=O)NC(=O)[C@H]([C@@H](C)O)NC(=O)[C@@H]2CCCN2C(=O)[C@@H]2CCCN2C1=O [compound 16] | > 120 | ≥ 500
8 | 120 | CC[C@H](C)[C@@H]1NC(=O)[C@@H]2CCCN2C(=O)[C@H](CC(C)C)NC(=O)[C@H](CC(=O)O)NC(=O)[C@H](Cc2ccc(O)cc2)NC(=O)[C@H](CCC(N)=O)NC(=O)[C@H](CCC(N)=O)NC(=O)[C@@H](NC(=O)CCCCCN)CSSC[C@@H](C(=O)N[C@H](CCCCN)C(=O)N[C@H](CCCCN)C(N)=O)NC(=O)[C@H]([C@@H](C)O)NC1=O [compound 54] | – | –
9 | – | CC[C@H](C)[C@@H]1NC(=O)[C@H](CO)NC(=O)[C@H](Cc2ccc(O)cc2)NC(=O)[C@H](CO)NC(=O)[C@H](CCC(N)=O)NC(=O)[C@H](CCC(N)=O)NC(=O)[C@@H](NC(=O)CCCCCN)CSSC[C@@H](C(=O)N[C@@H](CCCCN)C(=O)N[C@@H](CCCCN)C(N)=O)NC(=O)[C@H]([C@@H](C)O)NC(=O)[C@H](Cc2ccc(O)cc2)NC(=O)[C@H](CCC(=O)O)NC1=O [compound 34] | > 120 | > 500
10 | – | CC[C@H](C)[C@@H]1NC(=O)[C@H](CO)NC(=O)[C@@H](Cc2ccc(O)cc2)NC(=O)[C@H](CO)NC(=O)[C@H](CCC(N)=O)NC(=O)[C@H](CCC(N)=O)NC(=O)[C@@H](NC(=O)CCCCCN)C(C)(C)SSC(C)(C)[C@@H](C(=O)N[C@H](CCCCN)C(=O)N[C@H](CCCCN)C(N)=O)NC(=O)[C@H]([C@@H](C)O)NC(=O)[C@H](Cc2ccc(O)cc2)NC(=O)[C@@H]2CCCN2C1=O [compound 48] | 120 | 120
11 | – | CC[C@H](C)[C@@H]1NC(=O)[C@H](CO)NC(=O)[C@H](Cc2ccc(O)cc2)NC(=O)[C@H](CO)NC(=O)[C@H](CCC(N)=O)NC(=O)[C@H](CCC(N)=O)NC(=O)[C@@H](NC(=O)CCCCCN)CSSC[C@@H](C(=O)N[C@@H](CCCCN)C(=O)N[C@@H](CCCCN)C(N)=O)NC(=O)[C@H]([C@@H](C)O)NC(=O)[C@H](CCCNC(=N)N)NC(=O)[C@@H]2CCCN2C1=O [compound 44] | – | 24.9
12 | – | C[C@@H](O)[C@@H]1NC(=O)[C@H](Cc2ccc(O)cc2)NC(=O)[C@@H]2CCCN2C(=O)[C@H](CCC(=O)O)NC(=O)[C@H](CO)NC(=O)[C@H](Cc2ccc(O)cc2)NC(=O)[C@H](CO)NC(=O)[C@H](CCC(N)=O)NC(=O)[C@H](CCC(N)=O)NC(=O)[C@@H](NC(=O)CCCCCN)CSSC[C@@H](C(=O)N[C@@H](CCCCN)C(=O)N[C@@H](CCCCN)C(N)=O)NC1=O [compound 33] | > 120 | > 120
13 | – | CC(C)[C@H](NC(=O)[C@H](CC(N)=O)NC(=O)[C@H](CCCNC(=N)N)NC(=O)[C@H](C)NC(=O)[C@H](CC(=O)O)NC(=O)[C@H](Cc1ccc(O)cc1)NC(=O)[C@H](CO)NC(=O)[C@H](CCC(N)=O)NC(=O)[C@H](CS)NC(=O)CCCCCN)C(N)=O [compound 8] | ≥ 500 | ≥ 500
14 | – | CC[C@H](C)[C@@H]1NC(=O)[C@H](CO)NC(=O)[C@H](Cc2ccc(O)cc2)NC(=O)[C@H](CO)NC(=O)[C@H](CCC(N)=O)NC(=O)[C@H](CCC(N)=O)NC(=O)[C@@H](NC(=O)CCCCCN)CSSC[C@@H](C(=O)N[C@@H](CCCCN)C(=O)N[C@@H](CCCCN)C(N)=O)NC(=O)[C@H](CCC(=O)O)NC(=O)[C@H](Cc2ccc(O)cc2)NC(=O)[C@@H]2CCCN2C1=O [compound 36] | > 500 | > 120
15 | – | CC[C@H](C)[C@@H]1NC(=O)[C@H](CO)NC(=O)[C@H](Cc2ccc(O)cc2)NC(=O)[C@H](CCC(=O)O)NC(=O)[C@H](CCC(N)=O)NC(=O)[C@H](CCC(N)=O)NC(=O)[C@@H](NC(=O)CCCCCN)CSSC[C@@H](C(=O)N[C@@H](CCCCN)C(=O)N[C@@H](CCCCN)C(N)=O)NC(=O)[C@H]([C@@H](C)O)NC(=O)[C@H](Cc2ccc(O)cc2)NC(=O)[C@@H]2CCCN2C1=O [compound 30] | 25.9 | 26.5
16 | – | CC[C@H](C)[C@@H]1NC(=O)[C@H](CO)NC(=O)[C@H](Cc2ccc(O)cc2)NC(=O)[C@H](CO)NC(=O)[C@H](CCC(N)=O)NC(=O)[C@H](CCC(N)=O)NC(=O)[C@@H](NC(=O)CCCCCN)CSSC[C@@H](C(=O)N[C@@H](CCCCN)C(=O)N[C@@H](CCCCN)C(N)=O)NC(=O)[C@H](CCCNC(=N)N)NC(=O)[C@H](Cc2ccc(O)cc2)NC(=O)[C@@H]2CCCN2C1=O [compound 45] | > 500 | > 500
17 | – | CC[C@H](C)[C@@H]1NC(=O)[C@H](CO)NC(=O)[C@H](Cc2ccc(O)cc2)NC(=O)[C@H](CO)NC(=O)[C@H](CCC(N)=O)NC(=O)[C@H](CCC(N)=O)NC(=O)[C@@H](NC(=O)CCCCCN)CSSC[C@@H](C(=O)N[C@H](CCCCN)C(=O)N[C@H](CCCCN)C(N)=O)NC(=O)[C@H]([C@@H](C)O)NC(=O)[C@H](Cc2ccc(O)cc2)NC(=O)[C@@H]2CCCN2C1=O [compound 21] | – | 49.8
18 | 120 | CC[C@H](C)[C@@H]1NC(=O)[C@@H]2CCCN2C(=O)[C@H](CC(C)C)NC(=O)[C@H](CO)NC(=O)[C@H](Cc2ccc(O)cc2)NC(=O)[C@H](CCC(N)=O)NC(=O)[C@H](CCC(N)=O)NC(=O)[C@@H](NC(=O)CCCCCN)CSSC[C@@H](C(=O)N[C@H](CCCCN)C(=O)N[C@H](CCCCN)C(N)=O)NC(=O)[C@H]([C@@H](C)O)NC1=O [compound 53] | – | –
19 | – | CC[C@H](C)[C@@H]1NC(=O)[C@H](CO)NC(=O)[C@H](Cc2ccc(O)cc2)NC(=O)[C@H](CO)NC(=O)[C@H](CCC(N)=O)NC(=O)[C@H](CCC(=O)O)NC(=O)[C@@H](NC(=O)CCCCCN)CSSC[C@@H](C(=O)N[C@@H](CCCCN)C(=O)N[C@@H](CCCCN)C(N)=O)NC(=O)[C@H]([C@@H](C)O)NC(=O)[C@H](Cc2ccc(O)cc2)NC(=O)[C@@H]2CCCN2C1=O [compound 28] | – | 24.9
20 | – | CC[C@H](C)[C@@H]1NC(=O)[C@H](CCCNC(=N)N)NC(=O)[C@H](Cc2ccc(O)cc2)NC(=O)[C@H](CO)NC(=O)[C@H](CCC(N)=O)NC(=O)[C@H](CCC(N)=O)NC(=O)[C@@H](NC(=O)CCCCCN)CSSC[C@@H](C(=O)N[C@@H](CCCCN)C(=O)N[C@@H](CCCCN)C(N)=O)NC(=O)[C@H]([C@@H](C)O)NC(=O)[C@H](Cc2ccc(O)cc2)NC(=O)[C@@H]2CCCN2C1=O [compound 41] | – | 20.9

Where two headings read alike, the source gives them in different places.
